Values quoted from earlier work as cited in patent US20260159497A1, “SOLID FORMS OF A COMPLEMENT FACTOR B INHIBITOR” (Novartis Pharma AG, priority 2022, published 2026).

Conditions: C3G patients; cited from earlier work

B1: Eculizumab: C5 monoclonal antibody that has been approved for treatment of aHUS (antibody, chains of the INN, looked up)
heavy: QVQLVQSGAEVKKPGASVKVSCKASGYIFSNYWIQWVRQAPGQGLEWMGEILPGSGSTEYTENFKDRVTMTRDTSTSTVYMELSSLRSEDTAVYYCARYFFGSSPNWYFDVWGQGTLVTVSSASTKGPSVFPLAPCSRSTSESTAALGCLVKDYFPEPVTVSWNSGALTSGVHTFPAVLQSSGLYSLSSVVTVPSSNFGTQTYTCNVDHKPSNTKVDKTVERKCCVECPPCPAPPVAGPSVFLFPPKPKDTLMISRTPEVTCVVVDVSQEDPEVQFNWYVDGVEVHNAKTKPREEQFNSTYRVVSVLTVLHQDWLNGKEYKCKVSNKGLPSSIEKTISKAKGQPREPQVYTLPPSQEEMTKNQVSLTCLVKGFYPSDIAVEWESNGQPENNYKTTPPVLDSDGSFFLYSRLTVDKSRWQEGNVFSCSVMHEALHNHYTQKSLSLSLG
light: DIQMTQSPSSLSASVGDRVTITCGASENIYGALNWYQQKPGKAPKLLIYGATNLADGVPSRFSGSGSGTDFTLTISSLQPEDFATYYCQNVLNTPLTFGQGTKVEIKRTVAAPSVFIFPPSDEQLKSGTASVVCLLNNFYPREAKVQWKVDNALQSGNSQESVTEQDSKDSTYSLSSTLTLSKADYEKHKVYACEVTHQGLSSPVTKSFNRGEC
  improvement of disease when tested in C3G: only a subset of patients who had higher level of C5b-9 (MAC) showed improvement of disease
